For data set [1], the system named is skeletal (rear leg) muscle homogenates. Put plainly: Proteolytic index of muscle homogenates (autoproteolysis, Ninhidrin). The format is biochemical, rat. The note with it: incubation 4 hours at 37° C. Here is the method:
In-vitro tests were performed on the skeletal (rear leg) muscles of 17 white laboratory rats. Preliminary research efforts determined 1) the preparation method for muscle homogenates, 2) estimation of level of the proteolytic activity by measuring for the concentration of free amino acids, a result of protein cleavage, and 3) the optimal time of authoproteolysis.
The preparation of muscle homogenates. Efforts were made to disassemble the muscle tissue gently, without disruption of the lysosomes, though with sufficient strength to ensure a homogeneous suspension of muscle cells in physiological solution (PBS). Potter's homogenator was used with a glass barrel and a Teflon pestle. Determination of the optimal treatment was based on experimental data and the activity of the proteases during the incubation of the homogenates at 37° C. If lysosomes were damaged during preparation of the homogenates, then there was no increase in concentration of free amino acids during incubation. Undamaged lysosomes in the homogenate would continue their proteolytic activity during incubation. For the best preparation of the homogenate, the muscles were separated from the connecting tissue, weighed and cut up with scissors in a Petri dish for 10 minutes. The tissue was transferred into the barrel of the homogenator and cold, standard PBS was added ten parts to one part of tissue (weight to volume). The tissues were turned into homogenate with 6 strokes of the pestle. Glucural was dissolved in water (2.5 mg/ml) and added to the PBS before the treatment. All manipulations were done at 0° C.
The estimation of proteolytic activity. After incubation of the muscle samples for 4 hours, they were iced and then centrifuged for 10 minutes at low speed.
After the incubation of samples, the protein concentration was estimated by the standard Bio-Rad method. To estimate proteolytic activity based on the concentration of free amino acids found in the sample, three methods were tried: 1) absorbance at 280 nm, 2) concentration of amino acid tyrosine by estimation with Folin reagent, and 3) concentration of end amino groups with Ninhidrin reagent. Only method 3 provided accurate results, so the proteolytic index was measured based on the Ninhidrin reagent. After the estimation of protein concentrations, we used aliquots 0.05 or 0.1 ml, added water to have the volume equal to 0.8 ml and added 0.8 ml of 0.1% Ninhidrin water solution. Samples were boiled in a water bath for 10 minutes, chilled and the absorbance at 560 nm was measured. […] Concentrations of free amino acids and protein in mg/ml could therefore be determined for both cases. The ratio of free amino acids per proteins in the sample was calculated as the proteolytic index. […]

The next data set in a line: Water solubility. The format is physicochemical.

Results on 1 substance are retold here after US20050064382A1, “Method of prevention of lysosomal leakage in eukaryotic cells by using 6-methyluracil based water-soluble compounds and method of producing thereof” (priority 2002, published 2005).

For “complex of 2,4-dihydroxy-6-methylpyrimidine with N-methyl-D-glucamine [Glucural]”, the “Proteolytic Index” value was 2.142 ± 0.274 mg of aminoacids per mg of protein in data set [1] (Glucural 20 mkg/ml), 2.268 ± 0.195 mg of aminoacids per mg of protein in data set [1] (Glucural 30 mkg/ml), 1.380 ± 0.170 mg of aminoacids per mg of protein in data set [1] (Glucural 50 mkg/ml) and 1.071 ± 0.116 mg of aminoacids per mg of protein in data set [1] (Glucural 100 mkg/ml). Further, in “Water solubility”, the water-solubility result is listed as “more than 30 mg/ml”. For the same substance, in “Water solubility”, the “water-solubility relative to thalidomide” value is reported as “more than ten times higher”.
